The chains behind the UniProt entries cited, without tags or fusion partners. Where a name states a change or a piece, a line headed by the entry shows the natural chain unless it says otherwise.
UniProt Q9Y5N1, whole entry: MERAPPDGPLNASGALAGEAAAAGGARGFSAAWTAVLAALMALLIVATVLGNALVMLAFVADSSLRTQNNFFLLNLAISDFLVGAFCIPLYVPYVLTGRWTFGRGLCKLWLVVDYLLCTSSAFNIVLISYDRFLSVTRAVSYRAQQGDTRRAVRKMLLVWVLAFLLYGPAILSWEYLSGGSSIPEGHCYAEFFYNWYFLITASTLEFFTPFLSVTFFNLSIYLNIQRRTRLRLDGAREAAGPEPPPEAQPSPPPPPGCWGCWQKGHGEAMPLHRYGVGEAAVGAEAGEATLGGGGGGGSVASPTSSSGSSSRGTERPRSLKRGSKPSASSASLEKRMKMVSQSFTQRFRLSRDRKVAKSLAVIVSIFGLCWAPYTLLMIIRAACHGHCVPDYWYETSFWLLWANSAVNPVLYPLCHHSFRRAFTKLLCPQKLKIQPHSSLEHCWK

In patent US7314937B2, “Non-imidazole aryl alkylamines compounds as histamine H3 receptor antagonists, preparation and therapeutic uses” (Eli Lilly and Company, priority 2002, dated 2008):

Molecular target: H3R membranes (H3R8-expressing HEK293 cell line) (Homo sapiens, UniProt Q9Y5N1)
Experiment: [35S]GTPγS binding assay (antagonist inhibition of agonist-stimulated binding)
Conditions: inhibition of [35S]GTPγS binding to H3R membranes in presence of agonist R(-) alpha methylhistamine

## CCN(CC)CCCOc1ccc(C(C)NCCN(C)C)cc1 (stereo not shown)
  pKi: 8.83 and 9.02

pKi: −log10 of the molar value. “And” between values parts separate entries of the source, which are not always exact repeats. Equal entries are not always repeated.
